Test system: BDF mice bearing B16F10 ascites tumours
Assay: Maximum tolerated dose, i.p. once daily for 5 consecutive days
Settings: maximum dose yielding <20% lethality following five i.p. doses once daily

9-dihydrotaxol
MTD (q.d. days 1-5): greater than 100 mg kg-1 per day

— paper PMC2074348, “Preclinical in vivo efficacy of two 9-dihydrotaxane analogues against human and murine tumours” (British Journal of Cancer, 1996)
